Assay results: patent US12398153B2, “Spiro compound serving as ERK inhibitor, and application thereof” (D3 BIO (WUXI) CO., LTD., priority 2019, dated 2025)

Test system: HT29 tumor cells
Test: In vitro cell proliferation inhibition assay (CellTiterGlo)
Settings: read-out: HT29 IC50
Method: Assay Example 2. In Vitro Cell Proliferation Inhibition Assay
The ability of compounds to inhibit the proliferation of HT29 tumor cells was measured.
The assay compound was dissolved in 100% DMSO to prepare 10 mM stock solution.
• 1) UV light of a biological safety cabin was turned on, and 30 minutes were counted down; • 2) In a 37° C. water bath, RPMI1640 medium and trypsin were preheated; • 3) After completion of the UV irradiation, the biological safety cabin was opened. […] The culture vessel was shaken horizontally so that the trypsin evenly covered the cells at the bottom, and placed in an incubator for 2 minutes; • 6) Cell digestion was stopped with complete medium, and the cell suspension was pipetted to homogeneity and counted; • 7) According to the result of cell counting, the density of cell suspension was adjusted to 1500 cells per well, and the cell suspension was seeded at 50 μl per well; • 8) The stock solution of compounds was serially diluted in DMSO solution, and compounds were added to cell plate using Tecan;
9) The compound-added cell plate and CellTiterGlo were equilibrated at room temperature, and 25 microliters of CellTiterGlo was then added to each well. […] The signal value was then detected. The data were analyzed using XL-Fit, and the IC50 of each compound was calculated.

Work on `Cn1nccc1Nc1nccc(-c2nc3c(s2)C2(CCOC2)N(Cc2cccc(Cl)c2)C3=O)n1` (single isomer, unassigned) yielded an IC50 of 0.026 µM.
